In paper PMC3737541, “Structure-function analysis of the EF-hand protein centrin-2 for its intracellular localization and nucleotide excision repair” (Nucleic Acids Research, 2013):

Tests used:
[1] = target: T1, biotinylated XPC/RAD23B/centrin-2 (WT) heterotrimer (human, UniProt Q01831; P54727; P41208, biotin on the AviTag (in vitro, BirA)); experiment: pull-down; biotinylated XPC/RAD23B with or without pre-bound centrin-2 on streptavidin beads; TFIIH (70 ng) and/or FLAG-XPA (130 ng) in buffer B (40 mM Hepes-NaOH pH 7.9, 2 mM ATP, 3 mM MgCl2, 0.15 M NaCl), on ice 1 h; immunoblot; conditions: both partners purified
T1 construct: XPC protein, human; RAD23B, one of the two mammalian homologs of S. cerevisiae RAD23; centrin-2, human, wild type; also called XPC/RAD23B with centrin-2; not shown: AviTag, internal (between the FLAG-tag and XPC), kept; GST, N-terminal, cleaved; copies: + +

[2] = target: T2, biotinylated XPC/RAD23B/centrin-2 (C domain) complex (human, UniProt Q01831 1-940; P54727 1-409; P41208 94-172, biotin on the AviTag (in vitro, BirA)); experiment: as above; conditions: both partners purified
T2 construct: XPC protein, human; RAD23B, one of the two mammalian homologs of S. cerevisiae RAD23; centrin-2, human, carboxyl-terminal (C) domain, residues 94-172; also called XPC/RAD23B with centrin-2 (C); not shown: AviTag, internal (between the FLAG-tag and XPC), kept; GST, N-terminal, cleaved; copies: + +
T2 sequence (looked up) 1: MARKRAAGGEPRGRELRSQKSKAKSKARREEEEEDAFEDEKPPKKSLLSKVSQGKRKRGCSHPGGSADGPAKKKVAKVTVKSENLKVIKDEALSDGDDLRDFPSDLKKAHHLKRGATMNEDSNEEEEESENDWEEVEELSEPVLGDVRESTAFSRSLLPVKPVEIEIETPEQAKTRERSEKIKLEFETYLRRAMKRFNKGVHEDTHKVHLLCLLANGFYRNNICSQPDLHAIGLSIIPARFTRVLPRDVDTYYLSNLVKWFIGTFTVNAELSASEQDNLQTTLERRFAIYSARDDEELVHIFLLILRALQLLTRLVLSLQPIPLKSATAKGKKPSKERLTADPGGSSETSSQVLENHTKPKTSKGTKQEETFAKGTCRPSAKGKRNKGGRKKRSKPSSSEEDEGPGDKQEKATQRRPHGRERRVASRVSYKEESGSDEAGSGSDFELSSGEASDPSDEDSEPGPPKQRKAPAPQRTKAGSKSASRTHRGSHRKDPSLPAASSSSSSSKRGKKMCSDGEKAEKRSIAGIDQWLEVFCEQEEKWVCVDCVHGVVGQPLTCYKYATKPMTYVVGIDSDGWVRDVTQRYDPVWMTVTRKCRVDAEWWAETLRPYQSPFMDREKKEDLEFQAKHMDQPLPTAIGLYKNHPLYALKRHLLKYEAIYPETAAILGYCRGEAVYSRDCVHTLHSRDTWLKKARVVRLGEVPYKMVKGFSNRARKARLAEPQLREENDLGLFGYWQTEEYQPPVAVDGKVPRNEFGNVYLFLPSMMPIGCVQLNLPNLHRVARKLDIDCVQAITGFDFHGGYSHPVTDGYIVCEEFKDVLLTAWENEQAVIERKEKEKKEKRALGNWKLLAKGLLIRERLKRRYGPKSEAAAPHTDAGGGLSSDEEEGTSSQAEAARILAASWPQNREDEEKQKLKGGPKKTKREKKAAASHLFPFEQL
T2 sequence (looked up) 2: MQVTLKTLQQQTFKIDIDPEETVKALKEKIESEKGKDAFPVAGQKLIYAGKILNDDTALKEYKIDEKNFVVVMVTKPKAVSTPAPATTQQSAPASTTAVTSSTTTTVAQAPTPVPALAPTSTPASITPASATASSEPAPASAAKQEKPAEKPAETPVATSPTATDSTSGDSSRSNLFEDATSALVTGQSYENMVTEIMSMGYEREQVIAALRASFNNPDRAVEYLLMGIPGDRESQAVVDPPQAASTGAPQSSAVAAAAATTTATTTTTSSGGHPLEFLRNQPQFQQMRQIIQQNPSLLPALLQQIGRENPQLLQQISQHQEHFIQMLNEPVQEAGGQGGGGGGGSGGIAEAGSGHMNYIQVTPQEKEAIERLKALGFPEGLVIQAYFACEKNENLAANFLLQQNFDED
T2 sequence (looked up) 3: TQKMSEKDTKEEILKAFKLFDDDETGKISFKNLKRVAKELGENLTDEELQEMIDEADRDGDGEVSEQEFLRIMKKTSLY

B1: FLAG-XPA (natural protein, human, UniProt P23025 1-273, looked up)
chain: MAAADGALPEAAALEQPAELPASVRASIERKRQRALMLRQARLAARPYSATAAAATGGMANVKAAPKIIDTGGGFILEEEEEEEQKIGKVVHQPGPVMEFDYVICEECGKEFMDSYLMNHFDLPTCDNCRDADDKHKLITKTEAKQEYLLKDCDLEKREPPLKFIVKKNPHHSQWGDMKLYLKLQIVKRSLEVWGSQEALEEAKEVRQENREKMKQKKFDKKVKELRRAVRSSVWKRETIVHQHEYGPEENLEDDMYRKTCTMCGHELTYEKM
notes: XPA protein, human; also called purified recombinant XPA
Question: Does B1 bind [1]?
Answer: Result: binds

Question: Does B1 bind [2]?
Answer: Result: binds
